Earlier results in paper PMC2866165 (Nuclear medicine and biology, 2010).

System: PDE10A
Conditions: read-out: IC50 for PDE10A

For `COc1ccc(Cc2nccc3cc(OC)c(OC)cc23)cc1OC` [Papaverine, 1-(3,4-dimethoxybenzyl)-6,7-dimethoxyisoquinoline], the IC50 is listed as 0.036 µM.
